Drawing on US12110276B2 (Genentech, Inc., priority 2021, dated 2024), this text covers IC50 for 3 compounds.

Chains of the proteins cited; added tags and fusions are not shown.
UniProt P28347, whole entry, species assumed: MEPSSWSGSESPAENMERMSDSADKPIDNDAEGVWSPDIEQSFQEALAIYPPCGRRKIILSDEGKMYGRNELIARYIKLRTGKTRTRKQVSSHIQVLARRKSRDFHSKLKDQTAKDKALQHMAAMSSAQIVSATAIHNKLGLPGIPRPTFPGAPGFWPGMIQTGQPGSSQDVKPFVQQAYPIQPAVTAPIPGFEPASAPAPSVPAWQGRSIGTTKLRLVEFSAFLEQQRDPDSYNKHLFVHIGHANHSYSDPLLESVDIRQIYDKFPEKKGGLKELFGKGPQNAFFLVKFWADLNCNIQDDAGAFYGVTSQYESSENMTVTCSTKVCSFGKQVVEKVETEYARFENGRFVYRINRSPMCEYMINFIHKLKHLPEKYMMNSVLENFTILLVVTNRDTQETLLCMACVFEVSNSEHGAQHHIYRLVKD
UniProt Q99594, whole entry, species assumed: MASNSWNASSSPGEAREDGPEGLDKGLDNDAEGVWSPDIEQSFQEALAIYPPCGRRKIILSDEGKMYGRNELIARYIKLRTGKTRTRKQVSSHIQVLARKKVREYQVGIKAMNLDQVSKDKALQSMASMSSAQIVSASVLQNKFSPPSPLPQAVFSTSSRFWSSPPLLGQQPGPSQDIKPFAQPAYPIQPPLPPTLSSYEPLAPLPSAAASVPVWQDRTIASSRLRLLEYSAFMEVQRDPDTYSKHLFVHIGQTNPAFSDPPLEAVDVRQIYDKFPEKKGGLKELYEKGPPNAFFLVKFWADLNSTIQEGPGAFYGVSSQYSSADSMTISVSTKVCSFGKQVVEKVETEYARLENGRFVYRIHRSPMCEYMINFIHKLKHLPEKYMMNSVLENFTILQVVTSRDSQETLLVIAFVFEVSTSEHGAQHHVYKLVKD
UniProt Q15562, whole entry, species assumed: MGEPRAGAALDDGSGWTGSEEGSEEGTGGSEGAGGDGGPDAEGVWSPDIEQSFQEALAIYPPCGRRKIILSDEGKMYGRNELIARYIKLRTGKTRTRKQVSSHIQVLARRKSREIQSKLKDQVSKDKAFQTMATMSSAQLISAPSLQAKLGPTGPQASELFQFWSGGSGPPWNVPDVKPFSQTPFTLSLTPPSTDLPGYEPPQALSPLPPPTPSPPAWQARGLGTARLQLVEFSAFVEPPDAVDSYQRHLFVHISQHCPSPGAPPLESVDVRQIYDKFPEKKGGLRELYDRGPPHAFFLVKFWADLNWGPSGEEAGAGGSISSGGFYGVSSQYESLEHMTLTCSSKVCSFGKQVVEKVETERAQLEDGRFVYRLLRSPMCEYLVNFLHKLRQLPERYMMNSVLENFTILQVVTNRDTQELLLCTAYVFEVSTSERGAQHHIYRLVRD

Broadly, the IC50 is the concentration that inhibits the measured activity by half. Low readings indicate inhibition by little substance, high ones a need for much substance.

In one experiment the target is TEAD1 (Homo sapiens (Human), UniProt P28347). Kind of experiment: TR-FRET lipid pocket probe competition assay (Lipid HTRF), TEAD1.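 Note: His-tagged TEAD1 with biotinylated probe, detected via Europium anti-His and XL665 streptavidin, probe displacement lowers TR-FRET signal, IC50 from four-parameter nonlinear fit.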 In kind it is binding. The conditions noted are these: 4 hours pre-incubation. Background: In TR-FRET formats the signal depends on donor and acceptor labels being close together.
Another experiment concerns the target TEAD3 (Homo sapiens (Human), UniProt Q99594). Kind of experiment: TR-FRET lipid pocket probe competition assay (Lipid HTRF), TEAD3. In kind it is binding. The conditions noted are these: 4 hours pre-incubation.
The target of a further experiment is TEAD2 (Homo sapiens (Human), UniProt Q15562).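 Note: TR-FRET competition assay with His-tagged TEAD protein and a biotinylated lipid pocket probe, compound pre-incubated 30 min or 4 h at room temperature, displacement lowers signal.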

For `C/C=C/C(=O)NCc1nn(-c2ccc(OC(F)(F)F)cc2)c2nccc(CO)c12` [Compound 61, (E)-N-((4-(Hydroxymethyl)-1-(4-(trifluoromethoxy)phenyl)-1H-pyrazolo[3,4-b]pyridin-3-yl)methyl)but-2-enamide], the IC50 on TEAD1 is 900 nM.
`C=CC(=O)N1CC(c2nn(-c3ccc(OC(F)(F)F)cc3)c3nccc(CO)c23)C1` [Compound 112, 1-(3-(4-(Hydroxymethyl)-1-(4-(trifluoromethoxy)phenyl)-1H-pyrazolo[3,4-b]pyridin-3-yl)azetidin-1-yl)prop-2-en-1-one] came in with an IC50 at TEAD3 of 8.9 nM.
For `C=C(F)C(=O)N1CC(c2nn(-c3ccc(S(F)(F)(F)(F)F)cc3)c3nccc([C@@H](O)CO)c23)C1` [Compound 60, (R)-1-(3-(4-(1,2-dihydroxyethyl)-1-(4-(pentafluoro-16-sulfanyl)phenyl)-1H-pyrazolo[3,4-b]pyridin-3-yl)azetidin-1-yl)-2-fluoroprop-2-en-1-one], inhibition against TEAD2 was half-maximal at 8 nM (IC50).
